# Earlier results in article PMC11243196, “Identification of Benzothiazoles Bearing 1,3,4-Thiadiazole as Antiproliferative Hybrids Targeting VEGFR-2 and BRAF Kinase: Design, Synthesis, BIO Evaluation and In Silico Study” (Molecules, 2024).
# Test system: VEGFR-2 in MCF-7 cells
# Set-up: method as in PMID 32045054
# Conditions: cited from earlier work
structure (smiles),measurement,value
"CNC(=O)c1cc(Oc2ccc(NC(=O)Nc3ccc(Cl)c(C(F)(F)F)c3)cc2)ccn1 [SOR, Sorafenib]",inhibitory effect on VEGFR-2 in MCF-7 cells,88%
